Assay results published in patent publication US20240360179A1, “STAPLED PEPTIDES AND METHODS THEREOF” (FOG PHARMACEUTICALS, INC., priority 2021, published 2024).

Sequences of proteins named here, by UniProt entry; tags and fusion partners are left off.
UniProt P35222, whole entry: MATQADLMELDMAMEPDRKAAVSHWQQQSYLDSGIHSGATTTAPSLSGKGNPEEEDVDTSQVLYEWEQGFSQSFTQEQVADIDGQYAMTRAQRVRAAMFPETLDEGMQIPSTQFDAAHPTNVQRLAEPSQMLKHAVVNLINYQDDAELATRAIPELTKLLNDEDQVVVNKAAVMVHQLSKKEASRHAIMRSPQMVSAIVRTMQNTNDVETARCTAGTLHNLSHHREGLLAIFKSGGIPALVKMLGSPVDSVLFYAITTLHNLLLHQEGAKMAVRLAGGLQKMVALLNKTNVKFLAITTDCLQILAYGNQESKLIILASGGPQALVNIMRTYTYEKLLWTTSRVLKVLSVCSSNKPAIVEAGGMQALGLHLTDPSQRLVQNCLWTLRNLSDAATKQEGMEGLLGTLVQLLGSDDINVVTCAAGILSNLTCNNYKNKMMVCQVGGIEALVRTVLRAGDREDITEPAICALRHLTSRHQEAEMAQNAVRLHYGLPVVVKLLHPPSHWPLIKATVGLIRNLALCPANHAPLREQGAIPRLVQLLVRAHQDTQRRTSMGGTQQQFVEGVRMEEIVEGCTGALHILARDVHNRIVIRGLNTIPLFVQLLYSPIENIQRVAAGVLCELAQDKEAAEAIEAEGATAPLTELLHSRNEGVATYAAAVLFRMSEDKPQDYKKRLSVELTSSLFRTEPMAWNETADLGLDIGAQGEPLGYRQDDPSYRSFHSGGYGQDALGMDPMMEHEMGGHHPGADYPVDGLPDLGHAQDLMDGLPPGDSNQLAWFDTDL

target: T1, full-length B-Catenin (Uniprot ID P35222) (Homo sapiens, UniProt P35222); format: binding; conditions: competition fluorescence polarization; read-out: beta-Catenin FP IC50
T1 construct: 10 nM full-length B-Catenin (Uniprot ID P35222)

| Substance | IC50 |
| --- | --- |
| Ac-S5-Ala-Asp-DipA-B5-Asp-3COOHF-nLeu-Ala-Phe-Lys*3-PyrS2-Phe-34ClF-GlnR*3-NH2 [I-1688] | < 0.05 µM |
| Ac-S5-Ala-Asp-Ile-B5-Asp-2COOHF-Aib-Ala-Phe-Lys*3-PyrS2-Phe-34ClF-GlnR*3-NH2 [I-1335] | < 0.05 µM |
| Ac-S5-Ala-Asp-Ile-B5-Asp-3COOHF-Aib-Ala-Phe-Lys*3-PyrS2-Phe-34ClF-GlnR*3-Ala-NH2 [I-1233] | < 0.05 µM |
| Ac-S5-Ala-Asp-Ile-B5-Asp-3COOHF-Aib-Ala-Phe-Lys*3-PyrS2-Phe-34ClF-GlnR*3-NH2 [I-1234] | < 0.05 µM |
| Ac-S5-Ala-Asp-Ile-B5-Asp-3COOHF-Ala-Ala-Phe-Lys*3-PyrS2-Phe-34ClF-GlnR*3-Ala-NH2 [I-1239] | < 0.05 µM |
| Ac-S5-Ala-Asp-Ile-B5-Asp-3COOHF-Ala-Ala-Phe-Lys*3-PyrS2-Phe-34ClF-GlnR*3-NH2 [I-1240] | 0.05 to 0.2 µM |
| Ac-S5-Ala-Asp-Ile-B5-Asp-4COOHF-Aib-Ala-Phe-Lys*3-PyrS2-Phe-34ClF-GlnR*3-NH2 [I-1336] | 0.05 to 0.2 µM |
| Ac-S5-Ala-Asp-Ile-B5-Asp-Asn-Aib-Ala-Phe-Lys*3-PyrS2-Phe-34ClF-GlnR*3-NH2 [I-1339] | > 1 µM |
| Ac-S5-Ala-Asp-Ile-B5-Asp-Asp-Aib-Ala-Phe-Lys*3-PyrS2-Phe-34ClF-GlnR*3-NH2 [I-1337] | < 0.05 µM |
| Ac-S5-Ala-Asp-Ile-B5-Asp-Gln-Aib-Ala-Phe-Lys*3-PyrS2-Phe-34ClF-GlnR*3-NH2 [I-1340] | 0.2 to 0.75 µM |
| Ac-S5-Ala-Asp-Ile-B5-Asp-Glu-Aib-Ala-Phe-Lys*3-PyrS2-Phe-34ClF-GlnR*3-NH2 [I-1338] | 0.2 to 0.75 µM |
| Ac-S5-Ala-Asp-Ile-B5-Asp-Ser-Aib-Ala-Phe-Lys*3-PyrS2-Phe-34ClF-GlnR*3-NH2 [I-1341] | 0.2 to 0.75 µM |
| Ac-S5-Ala-Asp-Npg-B5-Ala-Asp-3COOHF-Aib-Ala-Phe-[4Abu]DapAc7-Leu-3Thi-BztA-GlnR*3-Ala-NH2 [I-1297] | > 1 µM |
| Ac-S5-Ala-Asp-Npg-B5-Asn-3COOHF-Aib-Ala-Phe-Lys*3-PyrS2-3Thi-BztA-GlnR*3-Ala-NH2 [I-1201] | 0.2 to 0.75 µM |
| Ac-S5-Ala-Asp-Npg-B5-Asp-3COOHF-Aib-Ala-Phe-Lys*3-PyrS2-Phe-34ClF-GlnR*3-Ala-NH2 [I-1229] | < 0.05 µM |
| Ac-S5-Ala-Asp-Npg-B5-Asp-Asp-Aib-Ala-Phe-Lys*3-PyrS2-3Thi-BztA-GlnR*3-Ala-NH2 [I-1329] | < 0.05 µM |
| Ac-S5-Ala-Asp-Npg-B5-Glu-3COOHF-Aib-Ala-Phe-Lys*3-PyrS2-3Thi-BztA-GlnR*3-Ala-NH2 [I-1199] | 0.05 to 0.2 µM |
| Ac-S5-Ala-Asp-Npg-B5-Glu-3COOHF-Aib-Ala-Phe-Lys*3-PyrS2-3Thi-BztA-GlnR*3-Ala-NH2 [I-1200] | 0.2 to 0.75 µM |
| Ac-S5-Ala-Asp-Npg-B5-Glu-Asp-Aib-Ala-Phe-Lys*3-PyrS2-3Thi-BztA-GlnR*3-Ala-NH2 [I-1330] | 0.2 to 0.75 µM |
| Ac-S5-Ala-Asp-Npg-B5-Hse-3COOHF-Aib-Ala-Phe-Lys*3-PyrS2-3Thi-BztA-GlnR*3-Ala-NH2 [I-1205] | > 1 µM |
| Ac-S5-Ala-Asp-Npg-B5-Ser-3COOHF-Aib-Ala-Phe-Lys*3-PyrS2-3Thi-BztA-GlnR*3-Ala-NH2 [I-1203] | 0.2 to 0.75 µM |
| Ac-S5-Ala-Asp-Npg-B5-Ser-3COOHF-Aib-Ala-Phe-Lys*3-PyrS2-3Thi-BztA-GlnR*3-Ala-NH2 [I-1204] | > 1 µM |

| Substance | IC50 |
| --- | --- |
| Ac-S5-Ala-Asp-Npg-B5-Ser-3COOHF-Aib-Ala-Phe-Lys*3-PyrS2-3Thi-BztA-GlnR*3-Ala-NH2 [I-1223] | > 1 µM |
| Ac-S5-Ala-Asp-Npg-B5-TfeGA-Asp-Aib-Ala-Phe-Lys*3-PyrS2-3Thi-BztA-GlnR*3-Ala-NH2 [I-1331] | > 1 µM |
| Ac-S5-Ala-Asp-Phe-B5-Asp-3COOHF-Aib-Ala-Phe-Lys*3-PyrS2-Phe-34ClF-GlnR*3-Ala-NH2 [I-1237] | < 0.05 µM |
| Ac-S5-Ala-Asp-Phe-B5-Asp-3COOHF-Aib-Ala-Phe-Lys*3-PyrS2-Phe-34ClF-GlnR*3-NH2 [I-1238] | < 0.05 µM |
| Ac-S5-Ala-Glu-Npg-B5-Glu-3COOHF-Aib-Ala-Phe-Lys*3-PyrS2-3Thi-BztA-GlnR*3-Ala-NH2 [I-1207] | > 1 µM |
| Ac-S5-Ala-Hse-Npg-B5-Asp-3COOHF-Aib-Ala-Phe-Lys*3-PyrS2-3Thi-BztA-GlnR*3-Ala-NH2 [I-1197] | 0.05 to 0.2 µM |
| Ac-S5-Ala-Hse-Npg-B5-Asp-3COOHF-Aib-Ala-Phe-Lys*3-PyrS2-3Thi-BztA-GlnR*3-Ala-NH2 [I-1198] | > 1 µM |
| Ac-S5-Ala-Hse-Npg-B5-Asp-3COOHF-Aib-Ala-Phe-Lys*3-PyrS2-3Thi-BztA-GlnR*3-Ala-NH2 [I-1220] | 0.2 to 0.75 µM |
| Ac-S5-Ala-Ser-Npg-B5-Asp-3COOHF-Aib-Ala-Phe-Lys*3-PyrS2-3Thi-BztA-GlnR*3-Ala-NH2 [I-1195] | 0.2 to 0.75 µM |
| Ac-S5-Ala-Ser-Npg-B5-Asp-3COOHF-Aib-Ala-Phe-Lys*3-PyrS2-3Thi-BztA-GlnR*3-Ala-NH2 [I-1196] | 0.2 to 0.75 µM |
| Ac-S5-Ala-Ser-Npg-B5-Asp-3COOHF-Aib-Ala-Phe-Lys*3-PyrS2-3Thi-BztA-GlnR*3-Ala-NH2 [I-1219] | > 1 µM |
| Ac-S5-Asp-Asn-Npg-B5-Asp-3COOHF-Aib-Ala-Phe-Lys*3-PyrS2-Phe-34ClF-GlnR*3-NH2 [I-1674] | 0.2 to 0.75 µM |
| Ac-S5-Asp-Asp-DipA-B5-Asp-3COOHF-Aib-Ala-Phe-Lys*3-PyrS1-3Thi-BztA-GlnR*3-NH2 [I-1871] | < 0.05 µM |
| Ac-S5-Asp-Asp-Npg-B5-Asp-3COOHF-Aib-Ala-Phe-Lys*3-PyrS2-Phe-34ClF-GlnR*3-NH2 [I-1673] | < 0.05 µM |
| Ac-S5-Asp-Asp-Npg-B5-Glu-3COOHF-Aib-Ala-Phe-Lys*3-PyrS2-Phe-34ClF-GlnR*3-NH2 [I-1676] | 0.2 to 0.75 µM |
| Ac-S5-Asp-Ser-Npg-B5-Asp-3COOHF-Aib-Ala-Phe-Lys*3-PyrS2-Phe-34ClF-GlnR*3-NH2 [I-1675] | 0.2 to 0.75 µM |
| Ac-S5-Glu-Asn-Npg-B5-Asp-3COOHF-Aib-Ala-Phe-Lys*3-PyrS2-Phe-34ClF-GlnR*3-NH2 [I-1677] | 0.2 to 0.75 µM |
| Ac-S5-Glu-Asp-Cha-B5-Asp-3COOHF-Aib-Ala-Phe-Lys*3-PyrS2-Phe-34ClF-GlnR*3-NH2 [I-1619] | < 0.05 µM |
| Ac-S5-Glu-Asp-Chg-B5-Asp-3COOHF-Aib-Ala-Phe-Lys*3-PyrS2-Phe-34ClF-GlnR*3-NH2 [I-1623] | < 0.05 µM |
| Ac-S5-Glu-Asp-DipA-B5-Asp-3COOHF-Aib-Ala-Phe-Lys*3-PyrS1-3Thi-BztA-GlnR*3-NH2 [I-1872] | < 0.05 µM |
| Ac-S5-Glu-Asp-Npg-B5-Glu-3COOHF-Aib-Ala-Phe-Lys*3-PyrS2-3Thi-BztA-GlnR*3-Ala-NH2 [I-1211] | < 0.05 µM |
| Ac-S5-Glu-Asp-Npg-B5-Glu-3COOHF-Aib-Ala-Phe-Lys*3-PyrS2-3Thi-BztA-GlnR*3-Ala-NH2 [I-1212] | < 0.05 µM |

| Substance | IC50 |
| --- | --- |
| Ac-S5-Glu-Asp-Npg-B5-Glu-3COOHF-Aib-Ala-Phe-Lys*3-PyrS2-3Thi-BztA-GlnR*3-Ala-NH2 [I-1227] | 0.05 to 0.2 µM |
| Ac-S5-Glu-Asp-Npg-B5-Glu-3COOHF-Aib-Ala-Phe-Lys*3-PyrS2-Phe-34ClF-GlnR*3-NH2 [I-1679] | 0.05 to 0.2 µM |
| Ac-S5-Glu-Glu-Npg-B5-Asp-3COOHF-Aib-Ala-Phe-Lys*3-PyrS2-3Thi-BztA-GlnR*3-Ala-NH2 [I-1209] | > 1 µM |
| Ac-S5-Glu-Glu-Npg-B5-Asp-3COOHF-Aib-Ala-Phe-Lys*3-PyrS2-3Thi-BztA-GlnR*3-Ala-NH2 [I-1210] | 0.75 to 1 µM |
| Ac-S5-Glu-Glu-Npg-B5-Asp-3COOHF-Aib-Ala-Phe-Lys*3-PyrS2-3Thi-BztA-GlnR*3-Ala-NH2 [I-1226] | 0.75 to 1 µM |
| Ac-S5-Glu-Glu-Npg-B5-Glu-3COOHF-Aib-Ala-Phe-Lys*3-PyrS2-3Thi-BztA-GlnR*3-Ala-NH2 [I-1228] | > 1 µM |
| Ac-S5-Glu-Ser-Npg-B5-Asp-3COOHF-Aib-Ala-Phe-Lys*3-PyrS2-Phe-34ClF-GlnR*3-NH2 [I-1678] | 0.2 to 0.75 µM |
| Ac-S5-Ile-Asp-Ile-B5-Asp-3COOHF-Aib-Ala-Phe-Lys*3-PyrS2-Phe-34ClF-GlnR*3-NH2 [I-1344] | 0.05 to 0.2 µM |
| Ac-S5-Leu-Asp-Chg-B5-Asp-3COOHF-Leu-Ala-Phe-Lys*3-PyrS1-3Thi-BztA-GlnR*3-NH2 [I-1936] | < 0.05 µM |
| Ac-S5-Leu-Asp-DipA-B5-Asp-3COOHF-Aib-Ala-Phe-Lys*3-PyrS1-3Thi-BztA-GlnR*3-NH2 [I-1874] | < 0.05 µM |
| Ac-S5-Leu-Asp-DipA-B5-Asp-3COOHF-Aib-Ala-Phe-Lys*3-PyrS1-Phe-34ClF-GlnR*3-NH2 [I-1785] | < 0.05 µM |
| Ac-S5-Leu-Asp-Ile-B5-Asp-3COOHF-Aib-Ala-Phe-Lys*3-PyrS2-Phe-34ClF-GlnR*3-NH2 [I-1296] | 0.05 to 0.2 µM |
| Ac-S5-Leu-Asp-Val-B5-Asp-3COOHF-Leu-Ala-Phe-Lys*3-PyrS1-3Thi-BztA-GlnR*3-NH2 [I-1935] | < 0.05 µM |
| Ac-S5-Pro-Asp-Cha-B5-Asp-3COOHF-Aib-Ala-Phe-Lys*3-PyrS2-Phe-34ClF-GlnR*3-NH2 [I-1617] | < 0.05 µM |
| Ac-S5-Pro-Asp-Chg-B5-Asp-3COOHF-Aib-Ala-Phe-Lys*3-PyrS2-Phe-34ClF-GlnR*3-NH2 [I-1621] | < 0.05 µM |
| Ac-S5-Pro-Asp-DipA-B5-Asp-3COOHF-Aib-Ala-Phe-Lys*3-PyrS1-Phe-34ClF-GlnR*3-NH2 [I-1694] | < 0.05 µM |
| Ac-S5-Pro-Asp-Npg-B5-Asp-Asp-Aib-Ala-Phe-Lys*3-PyrS2-3Thi-BztA-GlnR*3-Ala-NH2 [I-1332] | < 0.05 µM |
| Ac-S5-Pro-Asp-Npg-B5-Glu-Asp-Aib-Ala-Phe-Lys*3-PyrS2-3Thi-BztA-GlnR*3-Ala-NH2 [I-1333] | 0.2 to 0.75 µM |
| Ac-S5-Pro-Asp-Npg-B5-TfeGA-Asp-Aib-Ala-Phe-Lys*3-PyrS2-3Thi-BztA-GlnR*3-Ala-NH2 [I-1334] | > 1 µM |
| Ac-S5-Tle-Asp-Ile-B5-Asp-3COOHF-Aib-Ala-Phe-Lys*3-PyrS2-Phe-34ClF-GlnR*3-NH2 [I-1342] | 0.05 to 0.2 µM |
| Ac-S5-Val-Asp-Cha-B5-Asp-3COOHF-Aib-Ala-Phe-Lys*3-PyrS2-Phe-34ClF-GlnR*3-NH2 [I-1618] | 0.05 to 0.2 µM |
